Reference: patent US11617748B2, “Meclozine derivatives and diclazuril derivatives for use in the prevention and/or the treatment of disorders associated to the inflammation induced by P. acnes” (priority 2016, dated 2023)

Tested on: primary human keratinocytes (NHDK)
Assay: MTT viability of NHDK in the in vitro psoriasis-like model (M5)
Conditions: NHDK + M5, 48 h; JAK inhibitor 6.25 μM; meclozine, diclazuril 0.39 to 12.5 μM
Description: Cell culture, pretreatment and stimulation. The immortalized human keratinocyte cell line HaCaT, fibroblast MRC5 were grown in Dulbecco's modified Eagle's medium-Glutamax-I (DMEM) with 1 mM sodium pyruvate. The immortalized human monocytic cell line ThP1 was grown in Roswell Park Memorial Institute 1640 Medium-Glutamax-I (RPMI). DMEM and RPMI were supplemented with 0.1% and 10% heat-inactivated fetal calf serum (Invitrogen), and an antibiotic/antimycotic solution (10 U/ml Pencillin, 10 μg/ml Streptomycin, 0.25 μg/ml Amphoterin) at 37° C. in humidified atmosphere containing 5% CO2 as described (Life Technologie). Primary human keratinocytes (NHDK) and fibroblast (HDF) were grown in the KGM-Gold and in FGM-2 Bullet Kit, respectively, as described by the manufacturer (Lonza). The immortalized cell lines were routinely tested to assess the absence of Mycoplasma infection. Cells, cultivated in 6- or 96-well polystyrene plates, were pretreated with appropriate molecule solution for 1 to 48 h at 37° C. in the dark at the appropriate concentration. Then, for stimulation, cells were incubated for 15 min to 24 h with the P. acnes suspension adjusted at the appropriate concentration at 37° C. in 5% CO2. […]
Cell viability assays. […] After thorough mixing, the absorbance was measured at 540 nm.

Substance: Jak Inhibitor I
- decrease of the cell viability (MTT): 24.4%
